{
  "source": "patent US20260276655A1",
  "about": "“BIOMARKERS OF AMYOTROPHIC LATERAL SCLEROSIS AND USES THEREOF” (The Methodist Hospital, priority 2023, published 2026)",
  "test_system": "subjects with ALS",
  "assay": "Phase I Treg/IL-2 trial: serum analytes by ELISA and Appel ALS clinical score",
  "type": "in vivo, human",
  "description": "For the phase I Treg/IL-2 trial, three subjects with ALS were selected based on their differing sites of disease onset and progression rates. Specifically, three patients with arm, bulbar, and leg-onset ALS, respectively, were enrolled in the trial\nSubjects with ALS underwent Treg therapy. In brief, Treg therapy included taking T-regulatory cells (Tregs) from the patient (leukapheresis), increasing the cell number in a lab, and returning the Tregs in monthly intravenous (IV) infusions back to the same patient (dose of 1×10^6 cells/kg), plus three times per week subcutaneous interleukin-2 injections (2×10^5 IU/m^2/injection).\nFor the phase I Treg/IL-2 trial, patients underwent a total of 8 infusions of expanded autologous Tregs with concomitant subcutaneous IL-2 injections. Four Treg infusions were administered every 2 weeks at an early stage of the disease, followed by 4 Treg infusions administered every 4 weeks at a later stage. IL-2 was administered subcutaneously 3 times weekly beginning the day after the first Treg infusion and continued throughout the study period.\nFor both trials, patients were closely monitored for adverse effects and changes in disease progression rates. To monitor the responsiveness of the ALS patients to treatment, ALSFRS-R and/or AALS scoring and pulmonary function tests (e.g., FVC) were performed immediately before each Treg infusion, every 2 weeks during each round of infusions, and monthly after each round.\nSerum was obtained from groups of people including those diagnosed with amyotrophic lateral sclerosis (ALS) and healthy volunteers. Serum was collected from blood drawn from a patient according to standard procedures in the art. The resulting serum was subjected to an enzyme-linked immunosorbent assay (ELISA) to assess biomarker (e.g., analyte) concentration in serum of the patient. ELISA was performed according to manufacturer's instructions.\nImmune-based biomarker concentrations were assessed in serum samples collected from ALS patients and healthy control (HC) subjects according to the methods described in Section 7.2. Concentrations of the biomarkers were determined before and throughout the duration of ALS therapy which was administered according to the methods described in Section 7.1. Specifically, the concentration of inflammatory analytes (CCL2, IL- 18), oxidative stress (OS) analytes (4-HNE and MDA), and analytes associated with neuronal structural integrity (Nf-L and pNf-H) were assessed in serum collected from the patients and HC subjects. As understood herein, an analyte is a substance or chemical constituent that is determined in an analytical procedure. Analytes detected by ELISA, as used in the exemplary methods herein, are typically proteins, for example, cytokines, chemokines, immunoglobulins, hormones, and the like. To analyze the detection and quantification of the target analytes of the present example, comparisons were performed using ANOVA for more than 2 groups or Student's t-test for two groups. ANOVA was presented with the degrees of freedom, F value, and p value and Student's t-test was presented with a p value. Correlation was done using Spearman Rank Order in SigmaStat software and presented with a rho and p values.",
  "key": {"[1]": {"settings": "end of study, Treg infusions ceased and only IL-2 continued"}, "[2]": {"settings": "six-month Treg washout period, subjects receiving only IL-2"}},
  "data": [
    {"substance": "interleukin-2 [IL-2]", "values": [
      {"measurement": "CCL2 serum levels", "setting": "[1]", "result": "gradually increased again"},
      {"measurement": "IL-18 serum levels", "setting": "[1]", "result": "gradually increased again"},
      {"measurement": "Appel ALS clinical score (AALS)", "setting": "[2]", "result": "deterioration"},
      {"measurement": "CCL2 serum levels", "setting": "[2]", "result": "rose toward the baseline level"},
      {"measurement": "IL-18 serum levels", "setting": "[2]", "result": "rose toward the baseline level"},
      {"measurement": "disease progression", "setting": "subject three, Treg therapy stopped and only IL-2 administered", "result": "progressed again"}
    ]}
  ]
}
